According to PubChem BioAssay AID2099 (Broad Institute, 2009):
Only a part is listed here, and it is no random draw. The source made the active and inactive calls.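 Rule for the calls: active = more than half of a compound's replicate wells show inhibition beyond 50%, single wells judged on their own value; inconclusive = some, but no more than half, of replicates pass 50% inhibition; inactive = no replicate passes 50% inhibition.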

Chains of the proteins cited; added tags and fusions are not shown. Residues count along the entry.
UniProt Q9H3R0, 1-420 limits assumed: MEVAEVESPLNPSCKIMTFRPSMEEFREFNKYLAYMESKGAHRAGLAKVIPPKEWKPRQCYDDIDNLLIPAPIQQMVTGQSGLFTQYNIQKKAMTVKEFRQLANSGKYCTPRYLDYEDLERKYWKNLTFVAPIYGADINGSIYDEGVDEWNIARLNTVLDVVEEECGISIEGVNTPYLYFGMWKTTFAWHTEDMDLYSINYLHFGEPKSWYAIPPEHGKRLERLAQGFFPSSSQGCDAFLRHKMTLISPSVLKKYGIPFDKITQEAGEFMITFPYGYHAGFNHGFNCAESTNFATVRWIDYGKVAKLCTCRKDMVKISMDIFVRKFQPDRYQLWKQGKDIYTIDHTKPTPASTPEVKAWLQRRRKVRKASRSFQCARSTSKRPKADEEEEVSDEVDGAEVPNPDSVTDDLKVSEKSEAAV

Each compound was assayed against Lysine-specific demethylase 4C (Homo sapiens) (UniProt Q9H3R0) (assay: JMJD2C H3K9me3 demethylation blockers – biochemical, fluorescence, DELFIA europium, primary screen (AID 2099;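 note: signal counts dimethyl H3K9 product captured on neutravidin plate; 0% = median of DMSO wells and 100% = 0.3 times that DMSO median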)). Conditions: GST-JMJD2C(1-420) H3K9me3 demethylation, at 2.35 µM, active compounds read high.

Compound	inhibition
CCCOc1ccc(C(=O)NCC2(N(C)C)CCCCC2)cc1OC	inactive: -3.08%
CN1CCC(Nc2cccc(F)c2)CC1	inactive: -3.25%
O=C(NCC1(N2CCCCC2)CCCCC1)c1cncc(Br)c1	inactive: 0.172%
COc1cc(OC)c(C(=O)NCC2(N(C)C)CCCCC2)cc1OC	inactive: -1.24%
O=C(NCC1(N2CCOCC2)CCCCC1)c1cc(F)c(F)cc1Cl	inactive: -5.18%
CC(C)c1ccc(NC2CCN(C(=O)OC(C)(C)C)CC2)cc1	inactive: -4.2%
COc1ccc(CN(CCCl)CCCl)cc1Cl	inactive: -21.6%
CN(C)c1cccc(C(=O)NCC2(N3CCCCC3)CCCCC2)c1	inactive: -31%
O=C(NCC1(N2CCOCC2)CCCCC1)c1cc(=O)[nH]c2ccccc12	inactive: -13.5%
COc1cc(C(=O)NCC2(N3CCCCC3)CCCCC2)ccc1OC(F)F	inactive: 2.6%
COc1ccc(NC2CCN(C(=O)OC(C)(C)C)CC2)cc1	inactive: 2.43%
CN1CCN(CCOC(=O)C(O)(c2ccccc2)c2ccccc2)CC1	inactive: -6.16%
O=C(NCC1(N2CCCCC2)CCCCC1)c1cccc(C(F)(F)F)c1	inactive: 12.4%
CCN1CCC(Nc2ccc(Cl)cc2)CC1	inactive: 7.22%
N#CC1(Nc2ccccc2)CCN(CCc2ccccc2)CC1	inactive: 7.75%
O=C(NCC1(N2CCCCC2)CCCCC1)c1cccc([N+](=O)[O-])c1	inactive: 6.27%
O=C(NCC1(N2CCCCC2)CCCCC1)c1ccc(OC(F)F)cc1	inactive: 5.62%
CCOC(=O)N1CCC(Nc2cccc(C)c2)CC1	inactive: 9.2%
COc1cc(C(=O)NCC2(N(C)C)CCCCC2)ccc1OC(F)F	inactive: -1.75%
Cc1ccc(OCC(C)C)c(CN(CCCl)CCCl)c1	inactive: -5.19%
O=C(NCC1(N2CCCCC2)CCCCC1)c1ccc(F)cc1	inactive: 3.86%

Compound	inhibition
CCOC(=O)N1CCC(Nc2ccc(F)cc2)CC1	inactive: 6.53%
COc1ccc(NC2CCN(CCc3ccccc3)CC2)c(OC)c1	inactive: 80.7%
CCOc1ccc(C)cc1CN(CCCl)CCCl	inactive: -1.56%
O=C(NCC1(N2CCCCC2)CCCCC1)c1ccc(Cl)s1	inactive: -3.43%
N#CC1(Nc2ccccc2)CCN(Cc2ccccc2)CC1	inactive: -0.711%
O=C(OC1CN2CCC1CC2)C1c2ccccc2Oc2ccccc21 (stereo not drawn)	inactive: -10.3%
CCOC(=O)N1CCC(Nc2ccc(OC)cc2)CC1	inactive: -0.152%
Cc1cc(C)cc(N(C(=O)c2ccccc2)C2CCN(C(=O)OC(C)(C)C)CC2)c1	inactive: -3.35%
O=C(NCC1(N2CCOCC2)CCCCC1)c1cc2ccccc2o1	inactive: 6.53%
CSc1ccccc1C(=O)NCC1(N2CCCCC2)CCCCC1	inactive: 11.1%
COc1ccc(C(=O)NCC2(N3CCCCC3)CCCCC2)cc1	inactive: 0.0901%
COc1ccc(C(=O)NCC2(N3CCCCC3)CCCCC2)c(OC)c1OC	inactive: 6.4%
CC(C)(C)OC(=O)N1CCC(N(C(=O)c2ccccc2)c2ccc(F)cc2)CC1	inactive: -26.9%
O=C(NCC1(N2CCCCC2)CCCCC1)c1ccc(=O)[nH]c1	inactive: 25.4%
O=C(NCC1(N2CCCCC2)CCCCC1)c1cccs1	inactive: -1.22%
CN1CCC(Nc2ccc(Cl)cc2)CC1	inactive: -5.63%
CCCOc1ccc(C)cc1CN(CCCl)CCCl	inactive: -5.76%
COc1cccc(C(=O)N(c2cc(C)cc(C)c2)C2CCN(C(=O)OC(C)(C)C)CC2)c1	inactive: 8.12%
COc1cc(OC)cc(C(=O)NCC2(N3CCOCC3)CCCCC2)c1	inactive: -0.806%
CCC(CO)(C(=O)OC1CN2CCC1CC2)c1ccccc1 (stereo not drawn)	inactive: 29%
CC(C)(C)OC(=O)N1CCC(Nc2ccccc2)CC1	inactive: 11.1%

Compound	inhibition
O=C(O)C1(Nc2ccccc2)CCN(Cc2ccccc2)CC1	inactive: -21%
CCCOc1ccc(C(=O)NCC2(N(C)C)CCCCC2)cc1	inactive: 2.97%
CCOc1ncccc1C(=O)NCC1(N2CCOCC2)CCCCC1	inactive: -3.92%
CN1CCC(Nc2ccc(F)c(Cl)c2)CC1	inactive: 0.625%
O=C(NCC1(N2CCCCC2)CCCCC1)c1ccco1	inactive: 9.6%
CN(C)c1ccc(C(=O)NCC2(N3CCCCC3)CCCCC2)cc1	inactive: -3.2%
CCN1CCC(Nc2cccc(F)c2)CC1	inactive: 0.268%
Cc1ccc(C(=O)NCC2(N3CCCCC3)CCCCC2)o1	inactive: -4.64%
Fc1ccccc1NC1CCN(Cc2ccccc2)CC1	inactive: 4.65%
COc1cc(OC)cc(C(=O)NCC2(N3CCCCC3)CCCCC2)c1	inactive: -1.88%
CN(C)C1(CNC(=O)c2cccc(C#N)c2)CCCCC1	inactive: 3.01%
c1ccc(CN2CCC(Nc3ccccc3)CC2)cc1	inactive: -10.8%
CCCN1CCC(Nc2cc(OC)cc(OC)c2)CC1	inactive: -10.1%
N#Cc1ccc(C(=O)NCC2(N3CCCCC3)CCCCC2)cc1	inactive: 6%
CC(C)(C)OC(=O)N1CCC(N(C(=O)c2ccccc2)c2ccc(Cl)cc2)CC1	inactive: -13.2%
CCc1cc(C(=O)NCC2(N3CCCCC3)CCCCC2)sc1C	inactive: -0.526%
O=C(OC1CN2CCC1CC2)C1c2ccccc2C=Cc2ccccc21 (stereo not drawn)	inactive: -8.37%
CCOC(=O)N1CCC(Nc2ccc(C)cc2)CC1	inactive: -14.6%
COc1ccc(C(=O)NCC2(N3CCOCC3)CCCCC2)cc1OC	inactive: 13.5%
COc1cc(C(=O)NCC2(N3CCOCC3)CCCCC2)cc(OC)c1C	inactive: -4.63%
O=C(NCC1(N2CCOCC2)CCCCC1)c1cc(Br)ccc1Cl	inactive: -3.04%
